IC50 and DC50 data for one molecule are collected here from patent publication EP4624466A1, “DEGRADER FOR DECOMPOSING CMET PROTEIN, AND PHARMACEUTICAL COMPOSITION COMPRISING SAME” (Innocure Therapeutics, Inc., priority 2022, dated 2024).

Protein sequences, listed by entry. Tags and fused reporters are not part of them. Residues count along the entry.
UniProt P08581, 25-1390 limits assumed: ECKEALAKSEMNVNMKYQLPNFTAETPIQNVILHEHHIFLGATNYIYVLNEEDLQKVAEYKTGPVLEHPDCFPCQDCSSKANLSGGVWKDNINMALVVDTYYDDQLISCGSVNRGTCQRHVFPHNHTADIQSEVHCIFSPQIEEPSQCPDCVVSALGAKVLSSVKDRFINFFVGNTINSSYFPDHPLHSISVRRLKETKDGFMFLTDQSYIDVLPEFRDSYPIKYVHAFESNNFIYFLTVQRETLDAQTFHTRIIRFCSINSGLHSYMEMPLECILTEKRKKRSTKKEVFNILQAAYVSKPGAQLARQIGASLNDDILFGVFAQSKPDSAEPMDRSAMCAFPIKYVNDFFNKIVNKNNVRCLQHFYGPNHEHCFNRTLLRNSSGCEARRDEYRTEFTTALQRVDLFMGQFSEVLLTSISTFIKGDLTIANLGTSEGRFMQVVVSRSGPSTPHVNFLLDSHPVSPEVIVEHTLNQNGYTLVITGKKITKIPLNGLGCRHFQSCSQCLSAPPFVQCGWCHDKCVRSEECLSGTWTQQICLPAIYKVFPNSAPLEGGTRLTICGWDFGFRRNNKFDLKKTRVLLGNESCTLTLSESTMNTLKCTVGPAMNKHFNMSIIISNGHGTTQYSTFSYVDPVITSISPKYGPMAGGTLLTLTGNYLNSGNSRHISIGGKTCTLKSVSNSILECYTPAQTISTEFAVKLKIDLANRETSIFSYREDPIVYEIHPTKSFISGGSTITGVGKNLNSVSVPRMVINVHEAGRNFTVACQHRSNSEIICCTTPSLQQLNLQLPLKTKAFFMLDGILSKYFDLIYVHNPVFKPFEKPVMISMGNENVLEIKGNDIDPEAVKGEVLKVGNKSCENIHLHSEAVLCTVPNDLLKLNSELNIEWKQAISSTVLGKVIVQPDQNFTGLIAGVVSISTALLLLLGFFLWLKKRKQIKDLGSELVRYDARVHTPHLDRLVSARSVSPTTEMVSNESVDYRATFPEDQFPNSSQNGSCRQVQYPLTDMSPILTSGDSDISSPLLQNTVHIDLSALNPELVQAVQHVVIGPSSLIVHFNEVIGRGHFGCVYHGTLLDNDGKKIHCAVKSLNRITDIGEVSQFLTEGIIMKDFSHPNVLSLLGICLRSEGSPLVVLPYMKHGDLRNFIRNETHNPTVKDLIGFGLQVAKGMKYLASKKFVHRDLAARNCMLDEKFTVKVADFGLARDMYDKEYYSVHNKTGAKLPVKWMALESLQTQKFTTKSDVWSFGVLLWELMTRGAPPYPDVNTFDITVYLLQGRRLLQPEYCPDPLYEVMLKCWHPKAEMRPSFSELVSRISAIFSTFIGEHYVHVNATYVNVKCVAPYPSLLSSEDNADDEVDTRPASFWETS

For test [1], the system named is SNU-638. The test can be described thus: Cell viability / antiproliferative assay (WST-8), SNU-638. The conditions noted are these: read-out: SNU-638 IC50, SNU-638 cells, 72 hours, Table 2.
The target in test [2] is c-MET (Homo sapiens, UniProt P08581). Nature of the test: c-MET protein degradation (Simple Western), SNU-638. The conditions noted are these: read-out: SNU-638 DC50; c-MET overexpressing gastric cancer cell line SNU-638, treated 24 hours; Table 2. The method, then:
In order to assess the resolution of the compound of the present invention for c-MET expressed in cells, cells were dispensed in a 12-well plate at a concentration of 2 × 10^5 cells/well, and then gastric cancer cell lines were treated with samples for 24 hours and lung cancer cell lines were treated for 48 hours. Cell lysates were collected using a scraper on ice, centrifuged at 4°C15,000 rpm for 30 min to obtain a protein-containing supernatant. Protein expression was then measured using the Simple Western Automated Western Blot System Abby instrument using 3 µg of protein for each sample. SDS and heat-induced denaturation proteins were separated by molecular weight, attached to capillary, reacted with anti-c-MET or anti-GAPDH antibodies, which are primary antibodies, and then reacted with HRP-conjugated secondary antibodies, and analyzed the protein expression signal with compass software. Protein expression was normalized based on the expression value of GAPDH, and protein development in each sample was measured as a percentage (%) based on 100% of samples treated with 0.1% DMSO carriers, and DC50 (concentration of a compound where 50% protein inhibition is achieved) was calculated from the change in protein expression amount due to compound treatment.

Some results are limits rather than exact numbers.

For `N#Cc1cccc(-c2ccc(=O)n(Cc3cccc(-c4ncc(OCC5CCN(CCCCCc6cccc7cnn(C8CCC(=O)NC8=O)c(=O)c67)CC5)cn4)c3)n2)c1` (centres unmarked), the IC50 in test [1] was less than 100 nM. Also, in test [2], the DC50 was less than 100 nM.
